Experimental data reported in PubChem BioAssay AID460 (PCMD, 2006).
This is a selection; strong and weak results do not stand in their true shares. Some of these compounds have results that are not shown, active ones among them. Activity calls are given as the source filed them. Cut-off read from the data, not from the text of the source: active = inhibition above about 45%; inactive = the rest.

Chains of the proteins cited; added tags and fusions are not shown. Residues count along the entry.
UniProt P07711, 114-288 limits assumed: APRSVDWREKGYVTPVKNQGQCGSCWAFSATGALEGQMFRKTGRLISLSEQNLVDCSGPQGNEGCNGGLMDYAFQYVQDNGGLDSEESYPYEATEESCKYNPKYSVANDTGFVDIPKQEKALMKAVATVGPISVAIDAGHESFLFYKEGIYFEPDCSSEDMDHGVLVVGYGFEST
UniProt P07711, 292-333 limits assumed: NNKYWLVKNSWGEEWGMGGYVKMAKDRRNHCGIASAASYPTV

Molecular target: Procathepsin L (Homo sapiens) (UniProt P07711)
Assay: blockers of CTSL protease activity – biochemical (AID 460);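 note: 0% = enzyme with no compound and 100% = no enzyme blank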
Details: purified cathepsin L, fluorogenic substrate, fluorescence; stronger effect = higher value;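 tested at 10 µM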

Compound	inhibition
O=C(OC1CN2CCC1CC2)C(CO)(c1ccccc1)c1ccccc1 (configuration not stated)	inactive: 0.86%
CN(C)c1cccc(C(=O)NCC2(N(C)C)CCCCC2)c1	inactive: 8.82%
